# Screening results: PubChem BioAssay, National Center for Advancing Translational Sciences (NCATS)
# Sampled rows, rich in hits. Any-hit rate of the full collection: about 1.7%.
# PTHR1 ag = PTHR1 (human) receptor agonism; Q03431; HEK293 GP2 PTHR1 cells, GloSensor cAMP luminescence, 1 h; Potency, µM (titrated, usually from 115 µM), actives largely listed as activators; hit rate 0.075% among 410,000; AID 743266; further: nearly all actives have a fitted effect of over 55% in size
#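 HEK-293-derived GP2 cells expressing PTHR1 and a GloSensor cAMP reporter, 3,000/well, plated overnight, given luciferin plus IBMX (each 0.5 mM as added) for 1 h at 37 °C, then compound for 1 h at 37 °C. Luminescence was read after 15 min at room temperature.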
# GLP1R ag = activates the human GLP-1 receptor. HEK293 GLP-1R CRE-luciferase, luminescence, 4-6 h; cells express a hypersensitive GLP-1R form. AID 624172. hit rate 0.007% among 380,000. P43220. Potency, µM (top dose mostly 45.6 µM), most hits filed as activators
# Pin1 inh = blocks the human prolyl isomerase Pin1 | Potency, µM (series often up to 115 µM), actives largely listed as inhibitors | AID 504891 | hit rate 0.009% among 390,000 | Q13526 | Pin1 FP peptide displacement, HiFluor488, 10 min; active means well fitted inhibition curve with a large enough effect in the polarisation, with a control signal flat, not every such curve was filed as active; inconclusive means small, poorly fitted or top-dose-only effect, or effect the other way, or a change in a side signal; inactive means no such curve, though single readings can be large or run the other way; the % refers to the polarisation
# GLP1R cytotox = cytotoxicity counter-screen for GLP-1 receptor inverse agonists. HEK293 cAMP-luciferase reporter cells, luminescence, 24 h. hit rate 0.13% among 410,000. Potency, µM (titrated, usually from 38.3 µM), actives largely listed as inhibitors;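 further: loss of luciferase light is scored as toxicity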
#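 Compound-treated cells are incubated 24 hr at 37 deg C under 5% CO2 after a 12 hour attachment period, then luciferase detection reagent is added and luminescence is measured following 12 min at room temperature; lowered signal indicates toxicity.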
# GLP-1R inv ag = GLP-1 receptor (human) inverse agonism; hit rate 1.6% among 410,000; HEK293 GLP-1R CRE-luciferase, luminescence, 24 h; GLP-1R form is constitutively active; Potency, µM (doses to about 38.3 µM), usual class: inhibitors; P43220; further: nearly all actives have a fitted effect of over 55% in size
#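 Constitutively active GLP-1R drives a cAMP-responsive luciferase in stably transfected HEK293 cells; test compounds are added after overnight (12 h) attachment and left 24 hr, and signal loss in luminescence marks inhibition.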
# miR-21 reporter = raises the signal of a miR-21 reporter | HeLa miR-21 FLuc reporter, luciferase, 48 h | Potency, µM (highest dose often 38.3 µM) | 340,000 tested, under 10 active | AID 2288; active = well fitted rising curve with a large enough effect; inconclusive = small, poorly fitted or top-dose-only effect; inactive = no such curve, though single readings can be large or run the other way;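 also: miR-21 action dims this reporter so a rising signal means less miR-21 action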
#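 HeLa cells stably expressing CMV-driven firefly luciferase with a downstream miR-21 binding sequence, endogenously expressing miR-21, were treated with titrations (up to about 40uM final) for 48 hours at 37 degree Celsius. Luciferase luminescence was read after lysis.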
# A number is an active result; n = inactive; u = inconclusive; x = not tested or not shown. Unless noted, the call rests on the fitted dose curve; in most records, active means well fitted curve in the direction sought with a large enough effect; inconclusive means small, poorly fitted or top-dose-only effect, or another doubt; inactive means no such curve, though single readings can be large; an effect the other way counts as inactive or inconclusive.
SMILES,PTHR1 ag,GLP1R ag,Pin1 inh,GLP1R cytotox,GLP-1R inv ag,miR-21 reporter
CN(CC(O)COc1ccc2ccccc2c1)C1CCCCC1 (stereo not given),n,n,n,n,8.91µM,n
CCCCCn1ncc2c3sc(C)cc3n(C)c2c1=O,x,x,n,x,x,x
O=C(CNC(=O)c1ccccc1)NCC(=O)OCC(=O)c1ccc2ccccc2c1,x,x,n,x,x,x
CCN(c1ccccc1)S(=O)(=O)c1ccc(NCC2COc3ccccc3O2)nc1 (stereo not given),n,n,n,n,5.01µM,n
CCCN1CNc2c(c(=O)[nH]c(=S)n2CCc2cc(OC)ccc2OC)C1,x,x,n,x,x,x
COCCNCc1nc2sc(C)c(-c3ccccc3)c2c(=O)[nH]1,n,n,n,u,11.2µM,n
CCN1CCN(c2ccc(S(=O)(=O)N3CCCCC3)cc2NC(=O)/C=C/c2ccc([N+](=O)[O-])cc2)CC1,n,n,n,u,u,x
CCN1CCN(c2ccc(S(=O)(=O)N3CCCCC3)cc2NC(=O)/C=C/c2ccc(OC(F)F)cc2)CC1,n,n,n,u,7.08µM,x
CN1CCN(c2ccc(S(=O)(=O)N3CCCCC3)cc2NC(=O)/C=C/c2ccc(Cl)c([N+](=O)[O-])c2)CC1,n,n,n,10µM,u,x
Cc1cccc(NC(=O)C(c2ccccc2Cl)N2CCOCC2)c1 (stereo not given),n,n,n,n,u,n
CC(C)c1ccc(NC(=O)C(c2ccc3c(c2)OCO3)N2CCC3(CC2)OCCO3)cc1 (stereo not given),n,n,n,n,u,n
CC(C)c1ccc(NC(=O)C(c2ccc3c(c2)OCO3)N2CCCCC2)cc1 (stereo not given),n,n,n,n,3.98µM,n
CC(C)c1ccc(NC(=O)NC(C)c2ccc3c(c2)OCO3)cc1 (stereo not given),n,n,n,n,u,n
O=C(Nc1cc(Cl)cc(Cl)c1)C(c1ccccc1)N1CCCCC1 (stereo not given),n,n,n,n,2.24µM,n
CC1CCN(C(C(=O)Nc2ccc(C(C)C)cc2)c2ccc3c(c2)OCO3)CC1 (stereo not given),n,n,n,n,4.47µM,n
Cc1ccc(NC(=O)C(c2ccc(Cl)cc2Cl)N2CCCC2)cc1 (stereo not given),n,n,n,n,10µM,n
COc1cccc(NC(=O)C(c2ccccc2)N2CCCCC2)c1 (stereo not given),n,n,n,n,u,n
Brc1cccc(-c2nnn3c2nc(NCc2ccc4c(c2)OCO4)c2ccccc23)c1,n,n,n,n,n,n
CCn1c(=O)c2c(nc3n2CCN3c2ccc(OC)cc2)n(C)c1=O,n,x,n,n,n,n
COC(=O)c1c(C)[nH]c(/C=N/Nc2ccccc2)c1C,n,n,n,n,10µM,n
Cc1nn(-c2ccc(C(F)(F)F)cn2)c(C)c1Oc1ccccc1O,n,n,n,n,7.94µM,n
Cc1cc(=O)[nH]c(-n2nc(C)c(Oc3ccccc3O)c2C)n1,n,n,n,n,n,n
Cc1cc2c(s1)c1cnn(Cc3c(F)cc(F)cc3F)c(=O)c1n2C,x,x,n,x,x,x
CCOC(=O)C1(Cc2ccccc2C)CCCN(C(=O)c2sccc2C)C1 (stereo not given),n,n,n,n,10µM,n
COc1cc(NC(=O)C(OC(=O)CNC(=O)c2ccccc2)c2ccccc2)cc(OC)c1 (stereo not given),x,x,n,x,x,x
CCN(CC1COc2ccccc2O1)C(=S)NCCCN(C)C (stereo not given),n,n,n,n,7.08µM,n
CCN(CC1COc2ccccc2O1)C(=S)Nc1ccccc1 (stereo not given),n,n,n,n,n,n
CN(CC1COc2ccccc2O1)C(=S)NC1CCCCC1 (stereo not given),n,n,n,n,5.01µM,n
Cn1ncc2c(O/N=C(\N)c3ccc(C(C)(C)C)cc3)ncnc21,n,n,n,10µM,u,u
